Assays:
[1] = tested on: TP53 mutant and wild-type tumor cells; assay: Tumor cell proliferation inhibition, CellTiter-Glo luminescent cell viability assay; details: 0.04-30 µM, 6 days of incubation; result in words, IC50 values only in Figure 1
Protocol: IC50 values of compound 14 for inhibiting the proliferation of TP53 mutant and wild-type tumor cells. The TP53 mutant and wild-type tumor cells used in this example are all human tumor cell.
Tumor cells were plated in 384-well plates and treated with DMSO or specified concentrations of compound 14 (0.04-30 µM). After 6 days of incubation, chemiluminescence was measured using the CellTiter-Glo luminescent cell viability assay kit (Promega). Curves were fitted using GraphPad Prism software, and IC50 values were calculated.

Sequences of proteins named here, by UniProt entry; tags and fusion partners are left off.
UniProt Q13569, whole entry: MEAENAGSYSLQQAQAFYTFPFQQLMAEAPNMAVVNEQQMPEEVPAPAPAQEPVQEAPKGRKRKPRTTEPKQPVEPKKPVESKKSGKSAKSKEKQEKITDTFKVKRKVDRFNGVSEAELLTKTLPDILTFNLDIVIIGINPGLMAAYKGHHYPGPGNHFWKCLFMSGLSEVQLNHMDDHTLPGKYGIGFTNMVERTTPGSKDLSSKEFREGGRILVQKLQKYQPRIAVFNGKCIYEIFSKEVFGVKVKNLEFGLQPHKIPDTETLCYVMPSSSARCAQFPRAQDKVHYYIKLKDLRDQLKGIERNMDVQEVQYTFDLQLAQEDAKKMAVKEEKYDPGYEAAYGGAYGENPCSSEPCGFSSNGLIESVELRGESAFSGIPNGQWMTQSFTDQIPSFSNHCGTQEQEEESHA

[2] = target: His-tagged TDG protein (Homo sapiens, UniProt Q13569); assay: HTRF assay: inhibition of the binding of TDG to double-stranded DNA substrates; details: read-out: Activity, IC50 class, TDG 40 nM, Biotin-labeled dsDNA substrate 40 nM, 4PL fit
Protocol: HTRF (Homogeneous Time-Resolved Fluorescence) technology was used to evaluate the inhibitory effects of the compounds on the binding of TDG to double-stranded DNA substrates.
Microplate reader (manufacturer: Perkin Elmer; model: Envision multilabel reader equipped with HTRF module) and Echo 550 (manufacturer: Labcyte; model: Echo 550).
• 1. Preparation of compound concentration gradient: Test compounds were prepared at a starting concentration of 250 µM, with 3-fold serial dilution, 10 concentrations, and duplicate wells. In a 384-well plate, the compounds were gradient-diluted to 40× final concentration solutions at 10 different concentrations. Then 500 nl was transferred to a 384-well reaction plate using Echo 550 for later use. To the negative control wells and positive control wells, 500 nl of 100% DMSO or Biotin-unlabeled dsDNA substrate was added, respectively. • 2. Add 1.5 µl/well of Epigeneous Binding Domain diluent buffer to the 384-well plate, and centrifuge at 1000 rpm for 1 min. • 3. Add 4 µl of 5× final concentration of His-tagged TDG protein (final concentration 40 nM, diluted with Epigeneous Binding Domain diluent buffer) to the 384-well plate, centrifuge at 1000 rpm for 1 min, and incubate at room temperature for 10 min. • 4. Add 4 µl of 5× final concentration of Biotin-labeled dsDNA substrate (final concentration 40 nM, diluted with Epigeneous Binding Domain diluent buffer) to the 384-well plate, centrifuge at 1000 rpm for 1 min, and incubate at room temperature for 30 min. • 5. Add 5 µl of 4× final concentration of Streptavidin-XL665 (final concentration 5 nM, diluted with Epigeneous Binding Domain Detection buffer) to the 384-well plate, and centrifuge at 1000 rpm for 1 min. • 6. Add 5 µl of 4× final concentration of MAb Anti-6HIS-Eu cryptate Gold (final concentration 0.1 µg/ml, diluted with Epigeneous Binding Domain Detection buffer) to the 384-well plate, and centrifuge at 1000 rpm for 1 min.
Incubate overnight at 4 °C, and read HTRF on the microplate reader.
• 1. Calculation of Ratio value for each well Ratio = Signal 665 nm / Signal 620 nm × 104. • 2. Calculation of delta Ratio value for each well delta Ratio = Ratio standard or sample - Ratio standard 0 (negative control). • 3. IC50 values were fitted using a four-parameter logistic (4PL) curve.

IC50 [2]: 500 to 5000 nM
Structure (SMILES): COc1cc(O)c(C)cc1C1OC(=O)C2CC21 (centres unmarked)
inhibiting the in vitro proliferation of p53 mutant and wild-type tumor cell lines [1]: certain inhibitory effects on various tumor cell lines
